This is an account of results in patent US20240190916A1, “NOVEL PEPTIDE” (HYSENSBIO, priority 2022, published 2024).

The test system of the assay is human dental pulp cells (hDPCs) transplanted into the subcutaneous tissue of mice with impaired immune systems. In words: In vivo transplantation of hDPCs with HA/TCP and histological analysis. As to conditions: 12 weeks after transplantation, FIG. 5. How it is done:
Human dental pulp cells (hDPCs) were isolated and used for in vivo transplantation experiments. hDPCs (2×10^6 cells) were mixed with 100 mg of hydroxy apatite/tricalcium phosphate (HA/TCP) ceramic powder (Zimmer, USA) alone or along with peptides (10 μg) or 0.5% fibrin gel, and then transplanted into mice (NIH-bg-nu-xid; Harlan Laboratories, Indianapolis, IN) with damaged immune systems for 6 and 12 weeks. Thereafter, samples were harvested, fixed in 4% paraformaldehyde, decalcified in 10% EDTA (pH 7.4), embedded in paraffin, and stained with hematoxylin-eosin (H-E) (Vector Labs).

B1: BMP2: positive control BMP2 in the hDPC transplantation experiment (protein, UniProt P12643 283-396, looked up)
Bone morphogenetic protein 2: QAKHKQRKRLKSSCKRHPLYVDFSDVGWNDWIVAPPGYHAFYCHGECPFPLADHLNSTNHAIVQTLVNSVNSKIPKACCVPTELSAISMLYLDENEKVVLKNYQDMVVEGCGCR
Turning to B1, the “hard tissue (bone/cementum-like tissue) formation, hematoxylin-eosin histology” value is “a bone/cementum-like tissue incorporating cells into matrix of a newly formed calcified tissue”.
